Measurements from publication PMC2613638 (The Journal of Biological Chemistry, 2009).

Experiments:
CPN = target: T1, CPN (Homo sapiens, UniProt P15169); assay: Michaelis-Menten kinetics of peptide hydrolysis by CPN; type: biochemical
T1 sequence (P15169 21-458): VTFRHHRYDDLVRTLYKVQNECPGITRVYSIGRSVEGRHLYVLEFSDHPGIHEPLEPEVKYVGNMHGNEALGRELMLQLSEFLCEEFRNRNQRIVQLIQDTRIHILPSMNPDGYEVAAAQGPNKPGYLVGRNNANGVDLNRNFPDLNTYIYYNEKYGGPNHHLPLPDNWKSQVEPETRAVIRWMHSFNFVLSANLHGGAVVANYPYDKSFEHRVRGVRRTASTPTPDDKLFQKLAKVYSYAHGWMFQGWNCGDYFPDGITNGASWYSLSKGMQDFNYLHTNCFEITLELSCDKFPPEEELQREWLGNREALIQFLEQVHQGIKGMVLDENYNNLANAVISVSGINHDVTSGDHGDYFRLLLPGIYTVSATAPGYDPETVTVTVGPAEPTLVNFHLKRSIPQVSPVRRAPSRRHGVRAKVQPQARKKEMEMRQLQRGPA

CPB (TAFIa) [1] = target: T2, CPB (TAFIa) (Homo sapiens, UniProt Q96IY4); assay: Michaelis-Menten kinetics of peptide hydrolysis by CPB; type: biochemical; settings: hydrolysis by 50 nM CPB, peptide 20 to 320 μM, 5 min at 37 °C
T2 sequence (Q96IY4 115-423): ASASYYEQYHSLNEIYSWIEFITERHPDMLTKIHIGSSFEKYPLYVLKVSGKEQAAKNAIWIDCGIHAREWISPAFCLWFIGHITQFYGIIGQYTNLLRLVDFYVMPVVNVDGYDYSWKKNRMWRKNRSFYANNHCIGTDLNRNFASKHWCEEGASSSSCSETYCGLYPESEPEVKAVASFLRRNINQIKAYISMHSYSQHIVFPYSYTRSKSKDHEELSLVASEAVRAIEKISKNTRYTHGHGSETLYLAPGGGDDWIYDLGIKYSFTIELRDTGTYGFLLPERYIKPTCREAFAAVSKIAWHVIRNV

human CMKLR1 = target: T3, human CMKLR1 (Homo sapiens, UniProt Q99788); assay: In vitro transwell chemotaxis of CMKLR1/L1.2 transfectants; type: cell-based
T3 sequence (Q99788 1-373): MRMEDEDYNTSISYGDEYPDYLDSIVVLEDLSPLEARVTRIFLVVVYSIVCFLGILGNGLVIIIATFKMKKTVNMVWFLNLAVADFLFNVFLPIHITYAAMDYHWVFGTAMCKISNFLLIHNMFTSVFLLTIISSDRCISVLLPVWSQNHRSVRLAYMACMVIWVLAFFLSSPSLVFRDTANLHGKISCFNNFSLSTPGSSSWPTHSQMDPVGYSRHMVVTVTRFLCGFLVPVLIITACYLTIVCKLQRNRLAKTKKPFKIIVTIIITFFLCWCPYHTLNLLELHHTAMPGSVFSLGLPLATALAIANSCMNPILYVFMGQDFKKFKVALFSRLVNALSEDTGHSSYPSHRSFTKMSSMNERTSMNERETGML

CPB (TAFIa) [2] = target: T2, CPB (TAFIa); assay: HPLC analysis of chemerin 10-mer cleavage by CPB; type: biochemical; settings: 10-mer 1 μM, CPB 30 nM, 30 min at 37 °C, C18 HPLC
[3] = test system: recombinant CPN (carboxypeptidase N); assay: CPN; settings: 37 °C, up to 30 min

Row | Compound | kcat/Km by CPN, fold faster than CPB (CPN) | kcat/Km (CPN; hydrolysis by 5 nM CPN, peptide 20 to 320 μM, 5 min at 37 °C) | kcat/Km (CPB (TAFIa) [1]) | chemotactic activity after treatment with CPN or CPB (human CMKLR1; 10-mer treated with CPN (30 nM) or CPB (30 nM) at 37 °C for 30 min, Fig. 1B) | CMKLR1-dependent chemotaxis (human CMKLR1; peptide alone, even at 10 μM, 3 h at 37 °C, Fig. 1A) | efficiency of 10-mer cleavage (CPB (TAFIa) [2]) | cleaved bond [3]
1 | C[C@H](NC(=O)[C@H](Cc1ccccc1)NC(=O)[C@H](CCC(N)=O)NC(=O)CNC(=O)[C@@H]1CCCN1C(=O)[C@H](Cc1ccccc1)NC(=O)[C@@H](N)Cc1ccc(O)cc1)C(=O)N[C@@H](Cc1ccccc1)C(=O)N[C@@H](CO)C(=O)N[C@@H](CCCCN)C(=O)O [10-mer] | about 20 fold | 470000 M⁻¹ s⁻¹ | 22000 M⁻¹ s⁻¹ | substantially enhanced | did not induce any significant CMKLR1-dependent chemotaxis | about 60% | –
2 | YFPGQFAFSK | – | – | – | – | – | – | S157-K158, major
